For this test, the species on record is Homo sapiens. The test is described as follows: Selectivity index, ratio of IC50 for inhibition of human MAO-B using benzylamine as substrate to IC50 for inhibition of human MAO-A using kynuramine as substrate.

The structures appear in SMILES notation.

With `O=C1S/C(=C\c2ccc(N3CCN(c4ccc(F)cc4)CC3)cc2)C(=O)N1Cc1ccccc1`, the Ratio IC50 was found to be 2.55.

The record behind these values is ChEMBL document CHEMBL6115005, “New phenylpiperazine-thiazolidine-2,4-dione hybrids targeting MAO inhibition: Synthesis, biological evaluation, kinetic study and in silico insights” (Bioorg Med Chem, 2025).
